Test results from patent publication US10583127B2, “Amine salt of (1R, 3S)-3-(5-cyano-4-phenyl-1,3- thiazol-2-ylcarbamoyl)cyclopentane carboxylic acid” (PALOBIOFARMA, S.L., priority 2017, dated 2020).

Key:
[1] = Solubility screen assay (nephelometry); conditions: 37° C., 5% DMSO: 95% PBS buffer, maximum concentration in which compounds are soluble
[2] = Oral bioavailability assay: plasma pharmacokinetics after single IV and PO administration; conditions: male SD rats
[3] = Hygroscopicity study by Dynamic Vapour Sorption (DVS) profiles; type: physicochemical
Description: Hygroscopicity studies of salts were carried out by preparation of Dynamic Vapour Sorption (DVS) profiles, with a TA instrument Q5000 apparatus. After an initial stabilization period (samples are pre-dried at 60° C. under vacuum), isotherms (at 25° C.) were obtained for each sample: a moisture sorption from 0 to 95% relative humidity (RH) and moisture desorption from 95% RH to dryness. Both isotherms were performed in 5% and 10% humidity steps.
The relative humidity (RH) was controlled by a mixture of wet and dry nitrogen stream. The RH was held constant until the equilibrium had been obtained (constant weight) or until the maximum time has been reached, before changing the RH to the next level.

## tris(hydroxyethyl)ammonium (1R,3S)-3-((5-cyano-4-phenylthiazol-2-yl)carbamoyl)cyclopentane-1-carboxylate
[1]
  Solubility: 1.3 µM
[2]; iv 1 mg/Kg
  Clearance: 4.85 mL/min/kg
[2]; iv 1 mg/Kg, plasma
  AUC last: 3521.23 ng·h/mL
[2]; po 5 mg/Kg vs iv 1 mg/Kg, from AUClast
  F % (bioavailability): 53%
[2]; po 5 mg/Kg, plasma
  AUC last: 9304.80 ng·h/mL
[2]; po 5 mg/Kg, solution in normal saline, plasma
  Cmax: 4532.19 ng/mL
[3]; DVS at 25° C., 85% RH
  water adsorption (weight increase) at 85% RH: 17.58%
[3]; DVS at 25° C., 95% RH
  water adsorption (weight increase) at 95% RH: 37.48%
[3]; DVS sorption isotherm at 25° C., 25% RH
  moisture content at 25% RH: 1.238%
[3]; DVS sorption isotherm at 25° C., 55% RH
  moisture content at 55% RH: 2.308%
[3]; DVS sorption isotherm at 25° C.
  moisture content at 75% RH (variation in the moisture content): 3.44%
[3]; DVS sorption isotherm at 25° C., listed as (1R-3S)-3-(5-cyano-4-phenyl-1,3-thiazol-2-ylcarbamoyl)cyclopentane carboxylic ac
  moisture content at 75% RH (variation in the moisture content): 3.443%
[3]; DVS sorption isotherm at 25° C., listed as triethanolamine salt
  moisture content at 75% RH (variation in the moisture content): 3.44%
[3]; DVS, usual drug storage conditions (<75% RH)
  hygroscopicity (result in words): moderately hygroscopic
